Molecular target: Whole ZIKV virions (Paraiba_01 strain) (Zika virus (strain Paraiba_01))
Assay: ELISA

B1: Human recombinant EDE1-C8 (antibody, V domains shown)
VH: EVQLVESGGGLVQPGGSLRLSCSASGFTFSTYSMHWVRQAPGKGLEYVSAITGEGDSAFYADSVKGRFTISRDNSKNTLYFEMNSLRPEDTAVYYCVGGYSNFYYYYTMDVWGQGTTVTVSS
VL: EIVLTQSPATLSLSPGERATLSCRASQSISTFLAWYQHKPGQAPRLLIYDASTRATGVPARFSGSRSGTDFTLTISTLEPEDFAVYYCQQRYNWPPYTFGQGTKVEIK
**Q.** Does B1 bind?
**A.** Result: binds

— paper PMC10775418 (Cell reports, 2023)
